Amino acid sequences for entries named in this document (tags omitted).
UniProt P06493, whole entry: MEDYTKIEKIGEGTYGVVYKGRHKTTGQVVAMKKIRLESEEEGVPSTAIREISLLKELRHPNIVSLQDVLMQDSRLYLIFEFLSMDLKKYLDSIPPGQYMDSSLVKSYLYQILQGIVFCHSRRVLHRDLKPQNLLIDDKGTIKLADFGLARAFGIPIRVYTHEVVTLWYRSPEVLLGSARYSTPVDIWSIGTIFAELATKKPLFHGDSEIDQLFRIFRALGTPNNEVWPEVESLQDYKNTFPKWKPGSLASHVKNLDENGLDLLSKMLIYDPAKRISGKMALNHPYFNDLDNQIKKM

In ChEMBL document CHEMBL4270501, “Indole-fused azepines and analogues as anticancer lead molecules: Privileged findings and future directions” (Eur J Med Chem, 2017):

Target: Cyclin-dependent kinase 1/cyclin B1 (Homo sapiens, UniProt P06493)
Experiment: Inhibition of GST-tagged CDK1/cyclin B (unknown origin) expressed in Escherichia coli

IC50: 600 nM
Compound: O=C1Cc2c([nH]c3ccc(Br)cc23)-c2sccc2N1
